These results are taken from patent US8597616B2 (priority 2007, dated 2013).

The nature of data set [1]: Blood levels of 2-PAM-CL after intramuscular injection. The following applies: IM drug delivery, unpublished data.
For data set [2] the following is noted: intramuscular (IM) injection, normovolemic swine model, previous studies; cited from earlier work.

For `C[n+]1ccccc1/C=N/O`, in data set [1], the “time to reach therapeutic levels in the systemic circulation” value was in the range of 2 to 3 min. Also, in data set [2], the “time post-injection to peak blood levels” value is 8 min and the “time to reach therapeutic levels” value is listed as “about 2 minutes”.
